Reference: publication PMC8301260 (Medicinal chemistry research : an international journal for …, 2016)

These compounds were tested on primary human PBM, human CEM, and Vero cells.

Question: `Cc1ccc(NC(C#N)c2ccc(OCc3ccc(Cl)cc3Cl)cc2)cc1` (stereo not drawn) [Compound 2h, 2-[4-(2,4-Dichlorobenzyloxy)phenyl]-2-(4-toluidino)acetonitrile] was tested. Which “toxicity in all the cell systems tested (in words)” value (from here on “toxicity”) did it give?
Answer: The value was “highly toxic”.

Question: How did the “toxicity” value turn out when `Cc1cc(C)cc(NC(C(N)=O)c2c(Cl)cccc2Cl)c1` (stereo not drawn) [Compound 4, 2-(2,6-Dichlorophenyl)-2-(3,5-dimethylanilino)acetamide] was run?
Answer: The value was “highly toxic”.

Question: How did the “toxicity” value turn out when `NCC1(c2ccccc2)CCCN1C(=O)c1ccc(Br)cc1` (stereo not drawn) [Compound 10] was run?
Answer: The value was “no toxicity”.
